Series [1] deals with internally quenched peptide probe with CM PWGLSG (SEQ ID NO: 684).
Series [2] relates to internally quenched peptide probe with CM RSPWGL (SEQ ID NO: 90).
For series [3], the system named is internally quenched peptide probe with CM PWGASGRS (SEQ ID NO: 689).
Series [4] has as its system internally quenched peptide probe with CM PWGLSARS (SEQ ID NO: 691).
Series [5] has as its system internally quenched peptide probe with CM LSGRSPAGL (SEQ ID NO: 694).
The test system of series [6] is internally quenched peptide probe with CM PWGLSGR (SEQ ID NO: 163).
Series [7] has as its system internally quenched peptide probe with CM PAGLSGRS (SEQ ID NO: 687).
Series [8] deals with internally quenched peptide probe with CM LSGRSPWGL (SEQ ID NO: 177).
In series [9] the test system is internally quenched peptide probe with CM PWGLSGRA (SEQ ID NO: 693).
Series [10] concerns internally quenched peptide probe with CM PWGLAGRS (SEQ ID NO: 690).
Series [11] relates to internally quenched peptide probe with CM PWALSGRS (SEQ ID NO: 688).
Series [12] deals with internally quenched peptide probe with CM PWGLSGAS (SEQ ID NO: 692).
The subject of series [13] is internally quenched peptide probe with CM PWGLSGKS (SEQ ID NO: 150).
Series [14] has as its system internally quenched peptide probe with CM PWGLSGRS (SEQ ID NO: 12).
The test system of series [15] is internally quenched peptide probe with CM LSGKSPWGL (SEQ ID NO: 178).
Series [16] concerns internally quenched peptide probe with CM AWGLSGRS (SEQ ID NO: 686).
The subject of series [17] is internally quenched peptide probe with CM WGLSGRS (SEQ ID NO: 685).
For series [18], the system named is internally quenched peptide probe with CM PWGLRS (SEQ ID NO: 48).

Consider “urokinase-type plasminogen activator (uPA)”, for which the Probe Cleavage (pM/s) in [1] was found to be 12.9 pM/s; in series [2], 3210 pM/s; in series [3] it was 1310 pM/s; in [4], 1520 pM/s; in series [5] it was 620 pM/s; in series [6] it was 48.3 pM/s. In addition, the Probe Cleavage (pM/s) in [7] was 1570 pM/s; in series [8], 668 pM/s; in [9], 380 pM/s; in series [10] it was 126 pM/s; in series [11], 1130 pM/s; in series [12], 1.8 pM/s. For the same substance, the Probe Cleavage (pM/s) in series [13] was 15.2 pM/s; in series [14] it was 429 pM/s; in series [15], 117 pM/s; in series [16], 832 pM/s; in series [17] it was 548 pM/s; in series [18] it was “-”. Besides, the Probe Cleavage (kcat/KM (M^-1 s^-1)) in series [2] worked out at 66000 M⁻¹ s⁻¹; in series [14] it was 5300 M⁻¹ s⁻¹.

These data come from patent publication US20250215095.
